Series [1] deals with rats. The series can be described thus: Acute toxicity in rats. It counts as in vivo, Crj:CD (SD) rats. To be noted: single i.v. 0.5, 1.5 and 5.0 mg/kg. Here is the method:
Peptide (II) having a purity of 98.3% which was obtained in Reference Example 1 was dissolved in a physiological saline to prepare three preparations having peptide (II) concentrations of 0.1 mg/ml, 0.3 mg/ml and 1.0 mg/ml, respectively. As a control, the physiological saline was used.
88 Crj:CD (SD) rats of 4 weeks old (including 44 male rats and 44 female rats) were purchased from Charles River Japan, Inc., Japan. 40 Rats of each sex (males weighing 116.3 to 138.0 g and females 114.4 to 130.2 g) which were healthy and in good conditions in respect of both the clinical signs and the body weight gain during the observation period for quarantine and acclimation (male: 6 days, female: 8 days) were selected from the purchased rats and used for the following experiment. The rats were divided at random into four groups each consisting of 10 male rats and 10 female rats. Three of the four groups are used for the treatment with peptide (II).
Each of the above-prepared three test drug solutions containing peptide (II) at concentrations of 0.1 mg/ml, 0.3 mg/ml and 1.0 mg/ml, respectively, was individually administered at one time to the rats of the three groups at a dosage of 5 ml/kg of body weight. That is, the peptide was administered to the rats of the three groups at dosages of 0.5 mg/kg, 1.5 mg/kg and 5.0 mg/kg of body weight, respectively. To the rats of the remaining group, physiological saline was administered as a control at a dosage of 5 ml/kg of body weight. The administration of each of the test drug solutions and the physiological saline was conducted through the tail vein of each rat at an administration rate of 1 ml/min.
The results were recorded.
The amounts of the food supplied and the food remaining were measured twice a week by means of a balance, and the food consumption per day per animal was calculated.
The body weight of each animal was measured three times a week.
The animals were exsanguinated under ether anesthesia on the next day of the two-week observation period. Then, various organs and tissues of the animals were observed by gross autopsy.

Series [2] relates to cynomolgus monkeys. The series is described as follows: Subacute toxicity in cynomolgus monkeys by intravenous administrations for two weeks and two-week recovery test. It counts as in vivo. The conditions noted are these: i.v. daily for 14 days. Here is the method: Peptide (II) having a purity of 98.3% which was obtained in Reference Example 1 was dissolved in a physiological saline to prepare two preparations having peptide (II) concentrations of 0.03 mg/ml and 0.1 mg/ml, respectively. As a control, the physiological saline was used.
Approximately 3 to 6 year-old cynomolgus monkeys of both sexes were purchased from American Charles River Research Primates Ltd., U.S.A. The animals were bred for approximately 6 months and then observed two weeks for the quarantine and the acclimation. From the purchased monkeys, 10 male monkeys (weighing 2.15 to 3.03 kg) and 10 female monkeys (weighing 2.23 to 2.53 kg) which were healthy and in good conditions in respect of both the clinical signs and the body weight gain during the two-week observation period were selected from the purchased monkeys and used for the following experiment.
10 Males and 10 females were divided at random into three groups, namely, a first group to which peptide (II) is to be administered at a dosage of 5 mg/kg of body weight (4 males and 4 females), a second group to which peptide (II) is to be administered at a dosage of 1.5 mg/kg of body weight (2 males and 2 females) and a third group (control) to which physiological saline is to be administered (4 males and 4 females). With respect to the first group and the third group, 2 males and 2 females of each group were subjected to recovery testing after the administration.
Each of the above-prepared two test drug solutions containing peptide (II) at concentrations of 0.03 mg/ml and 0.1 mg/ml, respectively, was individually administered to the monkeys of the two groups at a dosage of 5 ml/kg of body weight. That is, the peptide was administered to the monkeys of the two groups at dosages of 0.15 mg/kg and 0.5 mg/kg of body weight, respectively. To the monkeys of the remaining group, physiological saline was administered as a control at a dosage of 5 ml/kg of body weight. The administration of each of the test drug solutions and the physiological saline was conducted daily for 14 days through the median antebrachial vein of each monkey at an administration rate of 10 ml/min.
The animals were daily observed to examine whether or not any of the animals was dead and/or any remarkable change in clinical signs had occurred. The observed results were recorded.
The amounts of the food supplied and the food remaining were daily measured by means of a balance, and the daily food consumption per animal was calculated.
The individual body weight was daily measured at a time between 2:00 p.m. to 4:00 p.m. by means of a balance.
The external appearance of the animals was observed daily by naked eye. Further, the examination of the bilateral fundus oculi was carried out prior to the administration, two weeks after the administration and two weeks after the withdrawal of the administration.
The electrocardiogram examination was carried out two weeks before the administration, two weeks after the administration and two weeks after withdrawal of the administration.
The urine was collected from each monkey for 18 hours two weeks before the administration, two weeks after the administration and two weeks after withdrawal of the administration, and the volume thereof was measured.
The hematological examination was carried out in the same manner as described above two weeks before the administration, two weeks after the administration and two weeks after the withdrawal of the administration.
The blood biochemical examination was carried out in the same manner as described above two weeks before the administration, two weeks after the administration and two weeks before the withdrawal of the administration.
The animals were exsanguinated under sodium pentobarbial anesthesia on the day after the 14th administration period in the case of the monkeys for acute toxicity test and after the administration withdrawal period in the case of the monkeys for the recovery test. […]

Series [3] relates to cerebral edema. The series can be described thus: Anti-cerebral edema activity, rat cerebral edema testing system (general statement). The conditions noted are these: in vivo. The text has this: The anti-cerebral edema activity of the pharmaceutical composition of the present invention was confirmed by the rat cerebral edema testing system using the following two animal models:
(1) the Tamura's experimental model for ischemic cerebral edema, the middle cerebral artery of which model is constricted, and
(2) the cold injury model, which is generally used as an experimental model for vasogenic edema caused by the blood-brain barrier insufficiency.
The anti-cerebral edema activity can be evaluated by determining the water content of a brain tissue, since the cerebral edema is defined by "a symptom defined as an excessive accumulation of water in a brain tissue (including the inside and the outside of the brain cells)". The water content of a brain tissue can be directly determined by the dry-wet method.

The mark [4] stands for this setting: 0.15 and 0.5 mg/kg, two-week recovery.

On to `CC[C@H](C)[C@@H]1NC(=O)[C@H](CCCNC(=N)N)NC(=O)[C@H](CC(=O)O)NC(=O)[C@H]([C@@H](C)CC)NC(=O)[C@H](CCCNC(=N)N)NC(=O)CNC(=O)CNC(=O)[C@H](Cc2ccccc2)NC(=O)[C@@H](NC(=O)[C@H](CO)NC(=O)[C@H](CO)NC(=O)[C@H](CCCNC(=N)N)NC(=O)[C@H](CCCNC(=N)N)NC(=O)[C@H](CC(C)C)NC(=O)[C@@H](N)CO)CSSC[C@@H](C(=O)N[C@@H](CC(N)=O)C(=O)N[C@@H](CO)C(=O)N[C@@H](Cc2ccccc2)C(=O)N[C@@H](CCCNC(=N)N)C(=O)N[C@@H](Cc2ccc(O)cc2)C(=O)O)NC(=O)CNC(=O)[C@H](CC(C)C)NC(=O)CNC(=O)[C@H](CO)NC(=O)[C@H](CCC(N)=O)NC(=O)[C@H](C)NC(=O)CNC1=O` [Peptide (II)], for which the Patho-anatomical examination entry in series [1] (gross autopsy after two-week observation) is reported as “No remarkable change”. Moreover, in series [1] (two-week observation), the “Change in body weight” value was “No remarkable change”, the Clinical signs entry is given as “No remarkable change”, the “Clinical signs: death of animals” value is listed as “No dead animal” and the Food consumption entry was “No remarkable change”. Further, in series [2] (setting [4]), the Blood biochemical examination result is on record as “No remarkable change”, the “Change in body weight” value is “No remarkable change”, the Clinical signs result is reported as “No remarkable change” and the “Clinical signs: death of animals” value is “No dead animal”. Also, in series [2] (setting [4]), the Electrocardiogram examination result was “No remarkable change”, the Food consumption result is “No remarkable change”, the Hematological examination result was “No remarkable change” and the “Measurement of organ weight” value is “No remarkable change”. In addition, in series [2] (setting [4]), the Ophthalmic examination entry is “No remarkable change”, the Patho-anatomical examination entry was “No remarkable change” and the Urinalysis result is “No remarkable change”. For the same compound, in series [2] (highest dosage 0.5 mg/kg), the Histopathological examination result was “No remarkable change”. In series [3], the “anti-cerebral edema activity as compared to peptide (III)” value is recorded as “relatively high”.

Values taken from patent US5204327A, “Treatment of cerebral edema with ANP pharmaceutical compositions” (Ashi Kasei Kogyo Kabushiki Kaisha, priority 1988, dated 1993).
